Experimental data taken from patent US8501754B2, “Quinazolinamide derivatives” (MERCK PATENT GmbH, priority 2007, dated 2013).

Molecular target: Recombinant human HSP90a (Homo sapiens, UniProt P07900)
Test: radioligand filter binding test ([3H]17AAG competition) for HSP90 inhibition
Details: read-out: HSP90 inhibition IC50; competition with [3H]17AAG 0.08 μM, HSP90 1.5 μg/assay, 22° C., 30 min

Compound: COc1ccccc1N(C)C(=O)c1nc(N)nc2ccc(I)cc12
- IC50: 10 to 1000 nM
